{"source": "patent US20040259878A1", "about": "“Fluoromethotrexates and uses therefor” (priority 2003, published 2004)", "key": {"[1]": {"system": "human prostate cancer LNCaP tumor xenograft", "conditions": "400 mg/kg i.v. bolus, 9 minutes per spectrum"}, "[2]": {"system": "HT-1080, M-805 and HS-16 cell lines", "conditions": "three cell lines; 24 hour drug exposure; data not shown"}, "[3]": {"conditions": "400 mg/kg i.v. bolus"}}, "note": "Like-named read-outs stand apart in the source and are kept apart here."}
{"substance": "N-(2-Fluoro-4-amino-4-deoxy-N-methyl-pteroyl)-L-glutamic acid [FMTX]", "values": [{"measurement": "time of peak tumor tissue concentration post-injection", "setting": "M-805 tumor xenograft; 400 mg/kg i.v. bolus, M-805 tumor", "value": 72, "unit": "min"}, {"measurement": "peak tumor tissue concentration", "setting": "M-805 tumor xenograft; 400 mg/kg i.v. bolus, M-805 tumor, 19F MR", "value": "0.19 ± 0.08", "unit": "mM"}, {"measurement": "intratumor 19F-MR observable concentration", "setting": "M-805 tumor xenograft; mouse, in vivo", "value": "0.10 ± 0.05", "unit": "mM"}, {"measurement": "tumor uptake detectable in vivo by 19F MR", "setting": "[1]", "value": "readily detectable"}, {"measurement": "time of peak tumor tissue concentration post-administration", "setting": "HS-16 tumor xenograft; 400 mg/kg i.v. bolus, HS-16 tumor", "value": 126, "unit": "min"}, {"measurement": "peak tumor tissue concentration", "setting": "HS-16 tumor xenograft; 400 mg/kg i.v. bolus, HS-16 tumor, 19F MR", "value": "0.31 ± 0.15", "unit": "mM"}, {"measurement": "intratumor 19F-MR observable concentration", "setting": "HS-16 tumor xenograft; mouse, in vivo", "value": "0.10 ± 0.08", "unit": "mM"}, {"measurement": "time of peak tumor tissue concentration post-injection", "setting": "HT-1080 tumor xenograft; 400 mg/kg i.v. bolus, HT-1080 tumor", "value": 234, "unit": "min"}, {"measurement": "peak tumor tissue concentration", "setting": "HT-1080 tumor xenograft; 400 mg/kg i.v. bolus, HT-1080 tumor, 19F MR", "value": "0.54 ± 0.15", "unit": "mM"}, {"measurement": "intratumor 19F-MR observable concentration", "setting": "HT-1080 tumor xenograft; mouse, in vivo", "value": "0.54 ± 0.15", "unit": "mM"}, {"measurement": "in vitro cytotoxic potency compared with MTX", "setting": "[2]", "value": "equipotent"}, {"measurement": "plasma concentration", "setting": "[3]; 30 minutes post-injection", "value": "320000 ± 20000", "unit": "nM"}, {"measurement": "plasma concentration", "setting": "[3]; 4 hours post-injection", "value": "1700 ± 300", "unit": "nM"}, {"measurement": "plasma concentration", "setting": "[3]; 24 hours post-injection", "value": "180 ± 90", "unit": "nM"}, {"measurement": "[FMTX]plasma at t=0 min, estimate from fit", "setting": "[3]; extrapolated from fit", "value": 0.482, "unit": "mM"}, {"measurement": "A, amplitude of fast-washout component of biexponential plasma decay", "setting": "[3]; fit to Eqn. 2", "value": 0.480, "unit": "mM"}, {"measurement": "B, amplitude of slow-washout component of biexponential plasma decay", "setting": "[3]; fit to Eqn. 2", "value": 0.00247, "unit": "mM"}, {"measurement": "rate-constant k1, fast-washout component", "setting": "[3]; plasma", "value": 1.74, "unit": "h⁻¹"}, {"measurement": "rate-constant k2, slow-washout component", "setting": "[3]; plasma", "value": 0.11, "unit": "h⁻¹"}, {"measurement": "t1/2, fast-washout component", "setting": "[3]; plasma", "value": 0.399, "unit": "h"}, {"measurement": "t1/2, slow-washout component", "setting": "[3]; plasma", "value": 6.3, "unit": "h"}]}
